# Data: BindingDB's records for PubMed 8114680 (University of Pennsylvania, 1994)
# By UniProt entry, the sequences of proteins in these tests, tags left out. Where a name states a change or a piece, a line headed by the entry shows the natural chain unless it says otherwise.
# UniProt P35372, whole entry: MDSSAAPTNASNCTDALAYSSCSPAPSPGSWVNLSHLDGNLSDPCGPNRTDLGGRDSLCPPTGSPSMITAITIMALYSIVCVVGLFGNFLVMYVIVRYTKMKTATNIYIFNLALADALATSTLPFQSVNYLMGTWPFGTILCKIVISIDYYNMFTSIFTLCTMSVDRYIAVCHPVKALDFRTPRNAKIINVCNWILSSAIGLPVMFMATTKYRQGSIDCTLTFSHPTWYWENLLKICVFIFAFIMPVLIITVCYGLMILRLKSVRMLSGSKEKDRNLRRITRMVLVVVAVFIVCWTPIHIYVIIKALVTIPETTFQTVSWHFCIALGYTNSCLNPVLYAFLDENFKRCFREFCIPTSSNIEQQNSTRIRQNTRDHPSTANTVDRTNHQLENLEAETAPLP
# UniProt P41145: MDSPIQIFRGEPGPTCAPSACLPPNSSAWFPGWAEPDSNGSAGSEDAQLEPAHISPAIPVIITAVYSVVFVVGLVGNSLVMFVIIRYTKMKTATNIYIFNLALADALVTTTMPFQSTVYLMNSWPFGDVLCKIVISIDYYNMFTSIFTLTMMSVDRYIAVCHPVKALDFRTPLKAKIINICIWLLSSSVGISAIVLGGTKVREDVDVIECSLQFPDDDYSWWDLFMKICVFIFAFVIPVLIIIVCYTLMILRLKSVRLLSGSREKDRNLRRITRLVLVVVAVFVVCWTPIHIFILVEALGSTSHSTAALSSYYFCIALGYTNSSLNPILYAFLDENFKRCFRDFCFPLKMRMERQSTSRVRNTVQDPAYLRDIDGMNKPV
# Legend:
# [1] = target: Mu-type opioid receptor (Homo sapiens, UniProt P35372)
# [2] = target: Kappa-type opioid receptor (Homo sapiens, UniProt P41145)
SMILES,Ki [1] [nM],Ki [2] [nM]
CC(C)[C@H](NC(=O)[C@H](CCC(=O)O)NC(=O)[C@H](Cc1ccccc1)NC(=O)[C@@H](C)NC(=O)[C@@H](N)Cc1ccc(O)cc1)C(=O)N[C@H](C(=O)NCC(N)=O)C(C)C [Tyr-D-Ala-Phe-Glu-Val-Val-GlyNH2],1000,–
CC(C)C[C@@H](NC(=O)[C@H](Cc1ccccc1)NC(=O)CNC(=O)[C@@H](C)NC(=O)[C@@H](N)Cc1ccc(O)cc1)C(=O)O [[D-Ala2-D-Leu5]enkephalin],16,1000
Oc1ccc2c3c1OC1c4[nH]c5ccccc5c4CC4(O)[C@H](C2)N(CC2CC2)CCC314 (some centres undefined) [NALTRINDOLE],–,66
